Drawing on patent US9561231B2 (AbbVie Inc., priority 2012, dated 2017), this text covers EC50 and Ki for four molecules.

Assay [1] deals with breast cancer cell line MX-1. Kind of assay: MX-1 cell line proliferation assay (3-day). In kind it is cell-based. The conditions noted are these: MX-1 cells, 72 h incubation, Cell Titer Glo; read-out: Cellular proliferation: EC50. How it is done: The impact of compounds of the Examples on cancer cell proliferation was determined using the breast cancer cell line MX-1 (ATCC) in a 3-day proliferation assay. MX-1 cells were maintained in RPMI supplemented with 10% FBS at 37° C. and an atmosphere of 5% CO2. For compound testing, MX-1 cells were plated in 96-well black bottom plates at a density of 5000 cells/well in 90 μL of culture media and incubated at 37° overnight to allow cell adhesion and spreading. Compound dilution series were prepared in DMSO via a 3-fold serial dilution from 3 mM to 0.1 μM. The DMSO dilution series were then diluted 1:100 in phosphate buffered saline, and 10 μL of the resulted solution were added to the appropriate wells of the MX-1 cell plate. The final compound concentrations in the wells were 3, 1, 0.3, 0.1, 0.03, 0.01, 0.003, 0.001, 0.0003 and 0.0001 μM.
Luminescence readings from the Cell Titer Glo assay were normalized to the DMSO treated cells and analyzed using the GraphPad Prism software with sigmoidal curve fitting to obtain EC50s.

The target in assay [2] is T1, first (BD1: amino acids K57-E168) bromodomain of BRD4 (Homo sapiens, UniProt O60885).
T1 construct: His-tagged first (BD1: amino acids K57-E168)
The assay is described as follows: TR-FRET bromodomain binding assay, BRD4 BD1. The settings on record: TR-FRET assay protocol (A-G, compound concentration range); Ki calculated from IC50, probe Kd and probe concentration; read-out: TR-FRET Binding Ki: BRD4 (BDI_K57-E168). The procedure: (§1) A time-resolved fluorescence resonance energy transfer (TR-FRET) assay was used to determine the affinities of compounds of the Examples listed in Table 1 for each bromodomain of BRD4. His-tagged first (BD1: amino acids K57-E168) and second (BD2: amino acids E352-E168) bromodomains of BRD4 were expressed and purified. An Alexa647-labeled BET-inhibitor was used as the fluorescent probe in the assay.
(§2) Compound dilution series were prepared in DMSO via an approximately 3-fold serial dilution from one of the following:
(§3) or 5-fold serial dilution from one of the following:
(§4) Assay method A: 2.5 mM-800 nM
(§5) For Assay methods A, C, D, and F: Compounds were then diluted 6:100 in assay buffer (20 mM Sodium Phosphate, pH 6.0, 50 mM NaCl, 1 mM Ethylenediaminetetraacetic acid, 0.01% Triton X-100, 1 mM DL-Dithiothreitol) to yield 3× working solutions. […] of this solution were added to the assay plate to reach a final volume of 18 μL.
(§6) TR-FRET data were normalized to the means of 24 no-compound controls (“high”) and 8 controls containing 1 μM un-labeled probe (“low”). Percent inhibition was plotted as a function of compound concentration and the data were fit with the 4 parameter logistic equation to obtain IC50s. Inhibition constants (Ki) were calculated from the IC50s, probe Kd and probe concentration. Typical Z′ values were between 0.65 and 0.75.

The target of assay [3] is T2, second (BD2: amino acids E352-E168) bromodomain of BRD4 (Homo sapiens, UniProt O60885).
T2 construct: protocol
The assay is described as follows: TR-FRET bromodomain binding assay, BRD4 BD2. The settings on record: TR-FRET assay protocol (A-G, compound concentration range); Ki calculated from IC50, probe Kd and probe concentration; read-out: TR-FRET Binding Ki: BRD4 (BDII_E352-M457). How it is done:
as §1, §2, §3, §4, §5, §6

Take `[2H]C([2H])([2H])C([2H])([2H])Oc1cc(=O)n(C)cc1-c1cc(NS(=O)(=O)CC)ccc1Oc1ccc(F)cc1F` [Example 334, N-[4-(2,4-difluorophenoxy)-3-{4-[(^2H5)ethyloxy]-1-methyl-6-oxo-1,6-dihydropyridin-3-yl}phenyl]ethanesulfonamide]: the EC50 in assay [1] turned out to be 15.2 nM. Further, the Ki in assay [2] is 27.6 nM; in assay [3], 4.08 nM.

With `COc1cc(=O)n(C)nc1-c1ccccc1Oc1ccccc1` [Example 18, 5-methoxy-2-methyl-6-(2-phenoxyphenyl)pyridazin-3(2H)-one], the Ki was 1650 nM in assay [2] and 523 nM in assay [3].

For the molecule `[2H]C([2H])(C)Oc1cc(=O)n(C)cc1-c1cc(NS(=O)(=O)CC)ccc1Oc1ccc(F)cc1F` [Example 333, N-[4-(2,4-difluorophenoxy)-3-{4-[(1,1-^2H2)ethyloxy]-1-methyl-6-oxo-1,6-dihydropyridin-3-yl}phenyl]ethanesulfonamide], the EC50 in assay [1] came to 27.7 nM. Besides, the values for the Ki in assay [2] and in assay [3] were 4.41 nM and 1.83 nM, respectively.

Consider `CCOc1cc(=O)n(C)cc1-c1cc(NS(=O)(=O)CC)ccc1Oc1ccc(F)cc1F` [Example 285, N-[4-(2,4-difluorophenoxy)-3-(4-ethoxy-1-methyl-6-oxo-1,6-dihydropyridin-3-yl)phenyl]ethanesulfonamide], for which the values for the inhibition constant (Ki) in assay [2] and in assay [3] were 4.9 nM and 1.03 nM, respectively.

As a reminder, the Ki is a dissociation constant, usually derived from enzyme kinetics or from competition with a known ligand.
